Our source for the IC50 values is ChEMBL document CHEMBL1127082, “3,4-Dihydroxychalcones as potent 5-lipoxygenase and cyclooxygenase inhibitors” (J Med Chem, 1993).

The term IC50 denotes the concentration at which inhibition is half-maximal. Higher therefore signals a need for much substance.

Test [1] deals with T1, Polyunsaturated fatty acid 5-lipoxygenase (Rattus norvegicus, UniProt P12527).
T1 sequence (P12527 whole entry): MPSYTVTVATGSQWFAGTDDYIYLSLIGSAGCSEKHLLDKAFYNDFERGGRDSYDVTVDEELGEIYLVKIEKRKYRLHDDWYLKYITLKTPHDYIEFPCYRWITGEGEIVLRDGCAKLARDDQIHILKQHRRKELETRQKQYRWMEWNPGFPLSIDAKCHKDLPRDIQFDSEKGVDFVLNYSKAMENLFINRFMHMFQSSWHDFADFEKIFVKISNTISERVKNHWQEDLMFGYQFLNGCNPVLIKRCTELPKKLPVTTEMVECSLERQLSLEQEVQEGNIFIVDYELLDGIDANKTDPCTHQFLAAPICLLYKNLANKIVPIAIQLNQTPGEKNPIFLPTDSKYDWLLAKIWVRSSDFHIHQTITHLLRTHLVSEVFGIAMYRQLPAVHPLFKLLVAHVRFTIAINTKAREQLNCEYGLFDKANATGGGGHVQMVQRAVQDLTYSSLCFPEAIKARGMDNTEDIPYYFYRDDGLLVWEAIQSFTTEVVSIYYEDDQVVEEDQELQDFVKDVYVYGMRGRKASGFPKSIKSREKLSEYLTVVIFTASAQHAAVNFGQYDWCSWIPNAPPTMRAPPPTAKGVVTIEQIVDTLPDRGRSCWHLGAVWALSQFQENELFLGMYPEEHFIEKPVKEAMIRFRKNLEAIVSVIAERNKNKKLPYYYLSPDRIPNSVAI
Briefly: In vitro inhibition against 5-lipoxygenase in RBL-1 cells was determined. It counts as cell-based.

Test [2] can be described thus: Inhibition of Prostaglandin G/H synthase activity in sheep seminal vesicle was determined. It counts as tissue-based, Ovis aries. The method, boiled down: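 Sheep seminal vesicle microsomes (32 μg protein) were incubated with [14C]arachidonic acid (0.1 μCi/mL) in pH 7.4 phosphate buffer containing glutathione, epinephrine and EDTA for 10 min at 37 °C. Substrate was removed by two hexane/EtOAc extractions, and aqueous-phase radioactivity was counted by scintillation. IC50 is reported with 95% confidence limits.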

As to `COc1ccc(O)c(C(=O)/C=C/c2ccc(O)c(O)c2)c1`, the figures for the IC50 in test [1] and in test [2] were 41 nM and 41000 nM, respectively.

As to `COc1ccc(C(=O)/C=C/c2ccc(O)c(O)c2)c(O)c1` [CALYTHROPSIN], in test [1], half-maximal inhibition (IC50) required 15 nM.
